Measurements reported in patent US7557137B2, “Gamma-lactams as beta-secretase inhibitors” (Bristol-Myers Squibb Company, priority 2002, dated 2009).

Chains of the proteins cited; added tags and fusions are not shown. Residues count along the entry.
UniProt P56817, 75-416 limits assumed: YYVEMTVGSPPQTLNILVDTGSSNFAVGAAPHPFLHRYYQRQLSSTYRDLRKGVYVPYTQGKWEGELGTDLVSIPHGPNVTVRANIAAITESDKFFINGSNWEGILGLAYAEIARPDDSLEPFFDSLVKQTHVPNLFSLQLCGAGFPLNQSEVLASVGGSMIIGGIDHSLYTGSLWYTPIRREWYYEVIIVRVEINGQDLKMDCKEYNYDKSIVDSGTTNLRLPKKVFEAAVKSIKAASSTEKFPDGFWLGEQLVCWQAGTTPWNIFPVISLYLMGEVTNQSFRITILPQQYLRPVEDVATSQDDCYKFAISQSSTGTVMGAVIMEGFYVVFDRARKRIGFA

Target: BACE enzyme (Homo sapiens, UniProt P56817)
Experiment: BACE enzyme inhibition, fluorescence-quenched peptide substrate MCA-EVNLDAEFK(DNP)
Assay type: biochemical
Details: read-out: Activity Rating (based on IC50 values); 50 mM acetate, pH 4.5, 0.25 mg/ml bovine serum albumin, 2.5% DMSO; tested form: TFA

Row | SMILES | IC50 [nM]
1 | CC[C@H](C)[C@@]1(NC(C)=O)CCN([C@@H](CCc2ccccc2)C(=O)N[C@@H](Cc2ccccc2)[C@H](O)CNCc2cc(F)cc(C(F)(F)F)c2)C1=O | < 100
2 | CC[C@H](C)[C@@]1(NC(C)=O)CCN([C@@H](CCc2ccccc2)C(=O)N[C@@H](Cc2ccccc2)[C@H](O)CNCc2cccc(C(F)(F)F)c2)C1=O | < 100
